Screening results as filed in PubChem.
Shown are actives, neighbours in structure and some others; about 0.34% of the full set was active somewhere.
miR-21 FLuc = miR-21 reporter, rising signal; HeLa miR-21 FLuc reporter, luciferase, 48 h; Potency, µM (titrated, usually from 38.3 µM), for the others: at the top dose reporter change, positive = more light; 340,000 tested, under 10 active; AID 2288; active = well fitted rising curve with a large enough effect; inconclusive = small, poorly fitted or top-dose-only effect; inactive = no such curve, though single readings can be large or run the other way;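 also: % of control where 0% means no effect; miR-21 action dims this reporter so a rising signal means less miR-21 action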
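Luminescence from a firefly luciferase reporter carrying a miR-21 binding site downstream, stably expressed under a CMV promoter in HeLa cells that make miR-21 endogenously, reports miRNA modulation after 48 h compound exposure up to approximately 40uM final.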
TRPML1 ag = activates the human TRPML1 channel; Q9GZU1; TRPML1-expressing cells, Ca2+ dye fluorescence, FDSS; activation, % (test concentration not listed); 0.12% of 410,000 active; in the data active means activation above about 50%; inconclusive means mostly about 30% to 49%; further: 0% is about no effect
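Calcium fluorescence on an FDSS kinetic reader gave the read-out. Tet-induced TRPML1-DL cells were plated overnight, dye-loaded (Ca8 with quencher, 45-90 min, room temperature, dark), then read 110 s after compound addition, and again 110 s after 4uM final 54-4 (EC80).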
TRPML1 inh = blocks the human TRPML1 channel; TRPML1-inducible cells, Ca2+ dye fluorescence, FDSS; stronger effect = lower value; inhibition of EC80 agonist-evoked calcium signal; AID 624415; activity change, negative = inhibition, % (test concentration not listed); Q9GZU1; 0.02% of 390,000 active; in the data active means activity change below about -50%; inconclusive means between about -30% and that limit;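 further: stimulus is agonist 54-4 at its EC80 concentration; on the % scale 0 is the no-effect control and ±100 the full control effect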
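TRPML1-DL cells, Tet-induced overnight (~16 h, 37 °C) at 1,500 cells/well, were loaded with Ca8 no-wash dye plus quencher for 45-90 min at room temperature. Compounds were pinned during FDSS kinetic reading; agonist 54-4 at EC80 (4 uM final) then added.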
uPA generation = inhibitors of cell surface uPA generation. cell surface uPA generation assay, qHTS. Potency, µM (doses to about 38.3 µM), for inactives: top-dose activity change, negative = inhibition, most hits filed as inhibitors. 0.31% of 330,000 active. AID 540303; active means well fitted inhibition curve with a large enough effect; inconclusive means small, poorly fitted or top-dose-only effect; inactive means no such curve, though single readings can be large or run the other way; tested in mouse RAW 264.7 cells; further: potency means the concentration at half of the fitted maximal effect; on the % scale 0 is the no-effect control and ±100 the full control effect; nearly all actives have a fitted effect of over 55% in size
* marks the source's active call; other numbers are inactive results; ? = inconclusive; nt = no result given.

Screens by letter – A = miR-21 FLuc; B = TRPML1 ag; C = TRPML1 inh; D = uPA generation
CCCCCNC(=O)c1c[nH]c2ccc(S(=O)(=O)N3CCC(C)CC3)cc2c1=O
  A: -5% | B: 1 | C: -50* | D: nt
COc1ccc2[nH]c(-c3ccc(C)cc3)cc(=O)c2c1
  A: 22% | B: 0 | C: 7 | D: 2.8µM*
CNc1nc(N2CCCN(C)CC2)nc2cc(OC)c(OC)cc12
  A: nt | B: 0 | C: nt | D: nt
COC(=O)c1c(C)cccc1C1CN=NC12Cc1ccccc1C2=O (centres undefined)
  A: nt | B: 113* | C: -20 | D: 7%
Oc1ccc(/C=C/c2cc(O)cc(O)c2)cc1
  A: 6% | B: 1 | C: -6 | D: 6.3µM*
CC(C)(C)n1ncc2c(=O)n(Cc3ccc(F)cc3F)cnc21
  A: nt | B: 1 | C: 2 | D: nt
Oc1ccc(-c2cn3ccccc3n2)cc1
  A: 0% | B: 1 | C: -7 | D: 4µM*
CN(C)CCNC(=O)C(=O)Nc1ccc2c(c1)N(S(=O)(=O)c1cccs1)CCC2
  A: nt | B: 1 | C: -9 | D: 4.5µM*
Nc1c(Cl)cc(C2=NCCn3c2c2ccc([N+](=O)[O-])cc2[n+]3[O-])cc1Cl
  A: nt | B: 0 | C: 3 | D: 4µM*
Nc1c(Cl)cc(C2=NCCn3nc4cc([N+](=O)[O-])ccc4c32)cc1Cl
  A: nt | B: 0 | C: -6 | D: -21%

Screens by letter – A = miR-21 FLuc; B = TRPML1 ag; C = TRPML1 inh; D = uPA generation
COc1ccc(/C=C2\CCC/C(=C\C=N\N(C)C)C2=O)cc1
  A: 28% | B: 1 | C: 9 | D: 11µM*
C(=Nc1cnc2ccccc2c1)c1ccnc2ccccc12
  A: nt | B: -1 | C: nt | D: nt
O=C1C=CC(=C(c2ccc(O)cc2)c2ccc(O)cc2)C=C1
  A: nt | B: 1 | C: 0 | D: 2µM*
Cc1ccccc1OCC(=O)NCC(=O)N/N=C/c1cccc([N+](=O)[O-])c1
  A: -2% | B: nt | C: nt | D: nt
Cc1ccccc1OCC(=O)N/N=C/c1cccc(Oc2ccc([N+](=O)[O-])cc2[N+](=O)[O-])c1
  A: -4% | B: 0 | C: 5 | D: 11µM*
Cc1ccc(C)c(N2CCN(C(=O)C3CCN(C(=O)c4cc5sccc5n4C)CC3)CC2)c1
  A: ? | B: 1 | C: 5 | D: nt
CCn1c(C(=O)N2CCCC(C(=O)N3CCN(c4cc(C)ccc4C)CC3)C2)cc2sccc21 (centres undefined)
  A: 27% | B: 65* | C: -11 | D: nt
Cc1cc(S(=O)(=O)Cc2noc(-c3c(C)noc3C)n2)c(C)cc1Cl
  A: -17% | B: 120* | C: -14 | D: 2%
O=C(c1cnn2c1NC(=C1CC1)C=C2C(F)F)N1CCc2ccccc21
  A: nt | B: -1 | C: nt | D: nt
COc1ccc(N=Cc2sc(O)c3ccccc23)cc1
  A: -35% | B: 84* | C: -29 | D: -2%

Screens by letter – A = miR-21 FLuc; B = TRPML1 ag; C = TRPML1 inh; D = uPA generation
COc1ccc(N=Cc2c(O)c3ccccc3n2C(C)=O)cc1
  A: -26% | B: 12 | C: 3 | D: -19%
COCCCN=C1NN=C(c2cc(C)n(-c3ccccc3F)c2C)CS1
  A: 11% | B: 2 | C: 32 | D: 6.3µM*
COCCCN=C1NN=C(c2cc(C)n(-c3ccccc3)c2C)CS1
  A: -32% | B: 0 | C: 6 | D: -2%
C=CC[n+]1c(/C=C2\C=Cc3cc(C)ccc3N2CC)ccc2ccccc21
  A: ? | B: 2 | C: 21 | D: 8.9µM*
CCOc1ccc(S(=O)(=O)n2c(C)nc3ccccc32)cc1
  A: -5% | B: 0 | C: -11 | D: 13µM*
Cc1cc(/C=C/c2ccnc3ccccc23)ccc1N
  A: nt | B: 27 | C: nt | D: nt
COC(=O)C1CCN(C(=O)c2cc(-c3ccc(Cl)s3)nc3ccccc23)CC1
  A: nt | B: 1 | C: 22 | D: 1.8µM*
CCN1CCN(C(=O)c2cc(-c3ccc(Cl)s3)nc3ccccc23)CC1
  A: 4% | B: 0 | C: -13 | D: -20%
CN(C)c1ccc(/C=C/c2ccnc3c(Cl)ccc(Cl)c23)cc1
  A: nt | B: 64* | C: nt | D: nt
Cc1ccc2c(/C=C/c3ccc(N(C)C)cc3)ccnc2c1C
  A: nt | B: 19 | C: nt | D: nt

Compound profiles, as listed above. Order of values: miR-21 FLuc | TRPML1 ag | TRPML1 inh | uPA generation
Entry for COc1ccc(N=Cc2c(O)c3ccccc3n2C(C)=O)cc1 : -26% | 12 | 3 | -19%
Entry for CCN1CCN(C(=O)c2cc(-c3ccc(Cl)s3)nc3ccccc23)CC1 : 4% | 0 | -13 | -20%
Entry for C=CC[n+]1c(/C=C2\C=Cc3cc(C)ccc3N2CC)ccc2ccccc21 : ? | 2 | 21 | 8.9µM*
Entry for COCCCN=C1NN=C(c2cc(C)n(-c3ccccc3)c2C)CS1 : -32% | 0 | 6 | -2%

Remaining list, next part:
Screens by letter – A = miR-21 FLuc; B = TRPML1 ag; C = TRPML1 inh; D = uPA generation
CCCCCCN1C=CC(=C/C=C(\C#N)C(=O)OCC)C=C1
  A: -2% | B: 60* | C: -12 | D: -5%
CCC1(C)CC(=O)c2c(ccc3oc(C(=O)NCc4ccccc4)c(C)c23)O1 (centres undefined)
  A: -8% | B: 50* | C: -16 | D: nt
COc1ccc2sc(N(CCN(C)C)C(=O)/C=C/c3cccs3)nc2c1
  A: 26% | B: -1 | C: 42 | D: ?
COc1ccc2nc(N(CCN(C)C)C(=O)/C=C/c3cccs3)sc2c1
  A: ? | B: -1 | C: -5 | D: 10µM*
Cc1cc(N(C)C)c(C)cc1/C=C/c1ccnc2ccccc12
  A: nt | B: 14 | C: nt | D: nt
CC(C)(C)CC(C)(C)N=C1Nc2ccc(Cl)cc2NC12C[C@H]1CCC(=O)N3CC[C@@H](C2)[C@@H]13 (some centres undefined)
  A: nt | B: -1 | C: nt | D: nt
COc1ccc(Cn2nnnc2C(c2ccccn2)N2CCN(c3cc(Cl)ccc3C)CC2)cc1 (centres undefined)
  A: 14% | B: 74* | C: -14 | D: 8%
CC1CCN(S(=O)(=O)c2cc([N+](=O)[O-])ccc2Cl)CC1
  A: 7% | B: 1 | C: 20 | D: 7.9µM*
O=c1c2ccccc2sc2ccc(C#CC3(O)CCCCC3)cc12
  A: nt | B: 1 | C: 24 | D: 2.5µM*
O=c1c2ccccc2oc2cc(C#CC3(O)CCCCC3)ccc12
  A: nt | B: 1 | C: 2 | D: 4.5µM*

Screens by letter – A = miR-21 FLuc; B = TRPML1 ag; C = TRPML1 inh; D = uPA generation
COc1cccc2oc3cc(C#CC4(O)CCCCC4)ccc3c(=O)c12
  A: -6% | B: 0 | C: 1 | D: 7.1µM*
COc1cc2nc(N3CCOCC3)nc(NC(C)C)c2cc1OC
  A: nt | B: -1 | C: nt | D: nt
COc1cc2c(cc1OC)/C(=C/c1ccc(N(C)C)cc1)C=C2
  A: nt | B: 1 | C: nt | D: nt
C=C1NN(CC2CC2)C(=O)N1c1ccc(OCc2ccccc2)cc1
  A: nt | B: -1 | C: nt | D: nt
CCN1C(=S)SC(=O)C1=C1C=C(C)N(Cc2ccco2)C(C)=C1
  A: -46% | B: 59* | C: -6 | D: -8%
CCN1C(=S)SC(=O)C1=C1C=C(C)OC(C)=C1
  A: -21% | B: 1 | C: -20 | D: 15%
O=C(Nc1cc(=O)[nH]c(=O)[nH]1)c1cc(Cl)ccc1Cl
  A: 20% | B: 0 | C: 14 | D: 3.5µM*
O=C(Nc1cc(=O)[nH]c(=O)[nH]1)c1cccc(C(F)(F)F)c1
  A: 3% | B: 0 | C: 7 | D: -2%
Cc1ccc(C(=O)NNC(=S)NC(=O)c2ccccc2)cc1
  A: nt | B: 0 | C: -12 | D: -6%
CCCOc1ccc(C(=O)NC(=S)NNC(=O)c2c(-c3ccccc3)noc2C)cc1
  A: 18% | B: 65* | C: 39 | D: 4%

Screens by letter – A = miR-21 FLuc; B = TRPML1 ag; C = TRPML1 inh; D = uPA generation
COc1ccc(C(=O)NNC(=S)NC(=O)c2cccs2)cc1
  A: 25% | B: 4 | C: -15 | D: -3%
CCCOc1ccc(NC(=O)c2c(-c3ccccc3)noc2C)cc1
  A: -3% | B: 2 | C: -8 | D: 4%
Cc1cccc(C(=O)NNC(=S)NC(=O)c2cccs2)c1
  A: 14% | B: 66* | C: 2 | D: -7%
Cc1ccc(C(=O)NNC(=S)NC(=O)c2ccc(Cl)cc2Cl)cc1
  A: -15% | B: 72* | C: 4 | D: -4%
